Laboratory results published in patent publication US20060134102A1, “Lymphotoxin beta receptor agents in combination with chemotherapeutic agents” (Biogen Idec MA Inc., priority 2002, published 2006).

Tested on: WiDr human colorectal adenocarcinoma
Assay: WiDr xenograft model: growth of established WiDr human colorectal tumors in athymic nude mice (tumor volume/weight, % T/C, Fa, Combination Index)
Details: Adriamycin 6 mg/kg; day 35

## COc1cccc2c1C(=O)c1c(O)c3c(c(O)c1C2=O)C[C@@](O)(C(=O)CO)C[C@@H]3O[C@H]1C[C@H](N)[C@H](O)[C@H](C)O1 [Adriamycin, adriamycin]
  Tumor volume, individual animals: 1059.5
